Laboratory results taken from patent publication US20240293483A1, “PROBIOTIC COMPOSITION FOR THE TREATMENT OF INCREASED INTESTINAL PERMEABILITY” (AB-BIOTICS, S.A., priority 2021, published 2024).

Assay: Stability of the strain in final product (plate counting of cfus, Zone II storage)
Assay type: physicochemical
Settings: 25° C., 60% RH, 0 vs 12 months
Method: The product was packaged in glass amber bottles and stored under Zone II conditions (25° C., 60% Relative Humidity (RH)). […] Results were expressed in LOG (cfus). Trend line was obtained and predicted cfus at 12 months were estimated. Fold and log reduction comparing cfus between 0 and 12 months were calculated.

Bifidobacterium longum subsp. longum KABP-042 (CECT 7894)
fold reduction of cfus over 12 months: 3 fold
